{"sequences": {"note": "Chains of the proteins cited; added tags and fusions are not shown. Residues count along the entry.", "UniProt P51451, whole entry, species assumed": "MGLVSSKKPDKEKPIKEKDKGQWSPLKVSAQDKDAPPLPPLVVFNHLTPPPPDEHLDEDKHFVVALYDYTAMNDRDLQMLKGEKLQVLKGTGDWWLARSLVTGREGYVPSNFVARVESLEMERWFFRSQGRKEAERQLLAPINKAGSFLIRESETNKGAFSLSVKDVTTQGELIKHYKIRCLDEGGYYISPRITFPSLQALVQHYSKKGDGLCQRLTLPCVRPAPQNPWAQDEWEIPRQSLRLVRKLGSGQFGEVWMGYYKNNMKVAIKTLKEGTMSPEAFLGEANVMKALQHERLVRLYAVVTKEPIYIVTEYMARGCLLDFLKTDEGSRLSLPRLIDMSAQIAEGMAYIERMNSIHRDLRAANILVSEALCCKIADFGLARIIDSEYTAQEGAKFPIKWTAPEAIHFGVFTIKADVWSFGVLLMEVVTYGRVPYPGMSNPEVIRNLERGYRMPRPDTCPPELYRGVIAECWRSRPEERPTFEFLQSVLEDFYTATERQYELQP", "UniProt P08069, 31-1367, species assumed": "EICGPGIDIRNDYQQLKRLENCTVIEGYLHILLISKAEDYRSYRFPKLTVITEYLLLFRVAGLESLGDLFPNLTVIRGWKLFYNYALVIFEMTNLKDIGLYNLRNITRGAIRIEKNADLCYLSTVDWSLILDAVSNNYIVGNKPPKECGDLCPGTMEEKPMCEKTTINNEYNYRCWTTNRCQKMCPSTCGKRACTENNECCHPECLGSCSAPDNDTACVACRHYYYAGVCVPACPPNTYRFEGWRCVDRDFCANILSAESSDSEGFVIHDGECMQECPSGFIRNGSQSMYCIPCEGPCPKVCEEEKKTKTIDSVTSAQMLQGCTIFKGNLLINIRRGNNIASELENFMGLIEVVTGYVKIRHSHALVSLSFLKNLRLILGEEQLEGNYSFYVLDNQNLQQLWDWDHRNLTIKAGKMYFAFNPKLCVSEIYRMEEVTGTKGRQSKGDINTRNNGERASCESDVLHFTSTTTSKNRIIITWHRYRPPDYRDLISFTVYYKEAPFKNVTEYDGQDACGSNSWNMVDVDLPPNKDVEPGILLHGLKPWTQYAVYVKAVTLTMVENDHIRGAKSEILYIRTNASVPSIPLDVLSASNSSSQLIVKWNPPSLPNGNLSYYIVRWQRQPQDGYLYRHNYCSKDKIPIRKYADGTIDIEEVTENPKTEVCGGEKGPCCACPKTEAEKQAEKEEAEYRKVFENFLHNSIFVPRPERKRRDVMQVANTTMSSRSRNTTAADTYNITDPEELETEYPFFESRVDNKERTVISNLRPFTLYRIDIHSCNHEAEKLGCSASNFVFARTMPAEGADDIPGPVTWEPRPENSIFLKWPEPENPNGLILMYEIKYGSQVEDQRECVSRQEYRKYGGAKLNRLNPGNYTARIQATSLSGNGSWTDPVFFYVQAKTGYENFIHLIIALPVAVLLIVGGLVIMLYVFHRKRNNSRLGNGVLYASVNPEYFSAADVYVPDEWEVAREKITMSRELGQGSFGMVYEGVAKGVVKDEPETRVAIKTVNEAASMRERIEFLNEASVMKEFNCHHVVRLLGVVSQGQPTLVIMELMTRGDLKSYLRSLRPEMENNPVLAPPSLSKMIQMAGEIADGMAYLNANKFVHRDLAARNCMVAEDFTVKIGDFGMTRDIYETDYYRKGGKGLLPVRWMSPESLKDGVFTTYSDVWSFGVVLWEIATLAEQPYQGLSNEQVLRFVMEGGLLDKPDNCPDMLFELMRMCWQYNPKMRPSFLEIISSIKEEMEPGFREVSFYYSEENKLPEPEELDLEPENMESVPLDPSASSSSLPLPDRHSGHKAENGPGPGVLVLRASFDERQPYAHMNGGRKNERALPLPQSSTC", "UniProt P06239, whole entry, species assumed": "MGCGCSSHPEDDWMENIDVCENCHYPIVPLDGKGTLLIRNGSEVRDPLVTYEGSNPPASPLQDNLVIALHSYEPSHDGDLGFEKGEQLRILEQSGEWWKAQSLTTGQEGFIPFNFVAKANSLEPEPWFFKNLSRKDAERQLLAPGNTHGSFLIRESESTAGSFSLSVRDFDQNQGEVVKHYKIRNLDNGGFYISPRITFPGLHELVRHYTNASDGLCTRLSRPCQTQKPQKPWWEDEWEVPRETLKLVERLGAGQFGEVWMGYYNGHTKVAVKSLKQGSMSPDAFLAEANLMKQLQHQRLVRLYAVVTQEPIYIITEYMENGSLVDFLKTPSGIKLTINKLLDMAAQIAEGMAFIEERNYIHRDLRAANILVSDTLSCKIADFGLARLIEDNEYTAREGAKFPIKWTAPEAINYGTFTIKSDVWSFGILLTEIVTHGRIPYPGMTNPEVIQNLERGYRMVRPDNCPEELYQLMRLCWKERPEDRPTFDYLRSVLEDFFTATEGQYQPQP", "UniProt P41240, whole entry, species assumed": "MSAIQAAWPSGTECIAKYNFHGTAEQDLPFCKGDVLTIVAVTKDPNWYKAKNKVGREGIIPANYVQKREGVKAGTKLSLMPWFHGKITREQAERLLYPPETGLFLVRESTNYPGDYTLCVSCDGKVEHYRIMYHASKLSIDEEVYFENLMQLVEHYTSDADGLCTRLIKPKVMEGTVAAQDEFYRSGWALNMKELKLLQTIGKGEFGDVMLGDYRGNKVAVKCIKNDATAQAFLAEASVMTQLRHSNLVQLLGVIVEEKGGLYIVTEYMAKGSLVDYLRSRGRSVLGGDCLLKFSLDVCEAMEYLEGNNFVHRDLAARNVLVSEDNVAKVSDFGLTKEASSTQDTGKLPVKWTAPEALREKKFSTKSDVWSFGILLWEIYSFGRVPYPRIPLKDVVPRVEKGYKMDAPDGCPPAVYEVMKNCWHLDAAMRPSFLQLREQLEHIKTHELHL"}, "source": "paper PMC5524405", "about": "(PLoS ONE, 2017)", "key": {"BLK": {"molecular_target": "BLK (Homo sapiens, UniProt P51451)", "assay": "BLK enzymatic assay"}, "Tec": {"molecular_target": "T1, Tec (Homo sapiens, UniProt P42680)", "T1 sequence (P42680 1-631)": "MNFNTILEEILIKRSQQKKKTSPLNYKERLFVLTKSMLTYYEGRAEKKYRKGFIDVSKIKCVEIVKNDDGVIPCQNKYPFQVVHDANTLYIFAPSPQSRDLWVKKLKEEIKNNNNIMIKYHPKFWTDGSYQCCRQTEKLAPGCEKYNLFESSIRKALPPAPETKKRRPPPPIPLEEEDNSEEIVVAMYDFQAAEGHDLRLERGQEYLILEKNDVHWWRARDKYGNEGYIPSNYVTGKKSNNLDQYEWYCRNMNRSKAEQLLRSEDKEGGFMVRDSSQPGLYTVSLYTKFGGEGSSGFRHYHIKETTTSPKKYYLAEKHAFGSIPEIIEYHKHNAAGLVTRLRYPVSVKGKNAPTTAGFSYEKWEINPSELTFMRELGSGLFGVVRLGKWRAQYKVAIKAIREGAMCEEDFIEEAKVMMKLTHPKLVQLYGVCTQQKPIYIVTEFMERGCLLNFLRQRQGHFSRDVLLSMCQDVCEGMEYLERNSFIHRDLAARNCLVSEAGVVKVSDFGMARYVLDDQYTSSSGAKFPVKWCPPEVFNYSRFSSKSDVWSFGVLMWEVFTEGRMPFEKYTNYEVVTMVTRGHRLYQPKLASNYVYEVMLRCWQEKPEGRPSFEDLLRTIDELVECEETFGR", "assay": "Tec kinase enzymatic assay", "type": "biochemical"}, "IGF1R": {"molecular_target": "IGF1R (Homo sapiens, UniProt P08069)", "assay": "IGF1R enzymatic assay", "type": "biochemical", "from_the_text": "(§1) Similar assays were used for other kinases (Tec kinase, interleukin [IL]-2-inducible T-cell kinase, B-lymphocyte kinase, T cell-expressed kinase, and bone marrow-expressed kinase), with ATP concentrations equal to the apparent Michaelis constant (KM^app) for each kinase."}, "BMX": {"molecular_target": "T2, BMX (Homo sapiens, UniProt P51813)", "T2 sequence (P51813 1-675)": "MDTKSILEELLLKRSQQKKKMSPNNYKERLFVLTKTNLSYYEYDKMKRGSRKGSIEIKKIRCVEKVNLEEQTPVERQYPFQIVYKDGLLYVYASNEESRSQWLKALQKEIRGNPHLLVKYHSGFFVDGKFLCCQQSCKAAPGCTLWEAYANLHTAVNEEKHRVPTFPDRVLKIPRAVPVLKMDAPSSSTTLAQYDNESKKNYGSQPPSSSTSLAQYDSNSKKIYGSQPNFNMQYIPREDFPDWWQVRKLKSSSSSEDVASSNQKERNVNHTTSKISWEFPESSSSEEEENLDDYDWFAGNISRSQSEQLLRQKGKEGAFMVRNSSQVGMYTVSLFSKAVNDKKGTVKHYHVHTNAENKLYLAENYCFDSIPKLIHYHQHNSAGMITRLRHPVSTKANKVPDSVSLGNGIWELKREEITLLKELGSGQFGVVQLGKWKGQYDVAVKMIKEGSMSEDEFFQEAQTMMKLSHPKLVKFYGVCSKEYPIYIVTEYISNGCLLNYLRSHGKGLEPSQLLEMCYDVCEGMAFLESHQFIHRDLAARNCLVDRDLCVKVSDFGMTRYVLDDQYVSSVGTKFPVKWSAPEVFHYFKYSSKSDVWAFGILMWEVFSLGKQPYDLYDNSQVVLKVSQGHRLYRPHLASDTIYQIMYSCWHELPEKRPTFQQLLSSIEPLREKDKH", "assay": "BMX enzymatic assay"}, "Lck": {"molecular_target": "Lck (Homo sapiens, UniProt P06239)", "assay": "Lck enzymatic assay"}, "ITK": {"molecular_target": "T3, ITK (Homo sapiens, UniProt Q08881)", "T3 sequence (Q08881 1-620)": "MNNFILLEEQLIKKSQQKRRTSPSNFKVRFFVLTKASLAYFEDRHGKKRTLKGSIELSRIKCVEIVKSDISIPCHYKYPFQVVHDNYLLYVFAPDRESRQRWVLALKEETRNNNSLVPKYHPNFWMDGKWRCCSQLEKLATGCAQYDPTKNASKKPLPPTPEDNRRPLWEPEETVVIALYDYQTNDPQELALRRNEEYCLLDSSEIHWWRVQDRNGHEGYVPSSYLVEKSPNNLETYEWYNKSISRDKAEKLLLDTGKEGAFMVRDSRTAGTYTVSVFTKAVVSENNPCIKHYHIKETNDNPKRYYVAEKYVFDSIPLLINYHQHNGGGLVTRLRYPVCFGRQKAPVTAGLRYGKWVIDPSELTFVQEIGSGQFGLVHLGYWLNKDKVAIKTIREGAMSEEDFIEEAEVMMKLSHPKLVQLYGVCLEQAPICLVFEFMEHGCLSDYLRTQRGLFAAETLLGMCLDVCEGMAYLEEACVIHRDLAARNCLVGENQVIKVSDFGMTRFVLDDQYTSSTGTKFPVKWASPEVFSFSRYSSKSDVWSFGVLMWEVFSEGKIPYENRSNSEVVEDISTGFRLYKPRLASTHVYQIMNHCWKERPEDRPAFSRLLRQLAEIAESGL", "assay": "ITK enzymatic assay", "type": "biochemical"}, "Txk": {"molecular_target": "T4, Txk (Homo sapiens, UniProt P42681)", "T4 sequence (P42681 1-527)": "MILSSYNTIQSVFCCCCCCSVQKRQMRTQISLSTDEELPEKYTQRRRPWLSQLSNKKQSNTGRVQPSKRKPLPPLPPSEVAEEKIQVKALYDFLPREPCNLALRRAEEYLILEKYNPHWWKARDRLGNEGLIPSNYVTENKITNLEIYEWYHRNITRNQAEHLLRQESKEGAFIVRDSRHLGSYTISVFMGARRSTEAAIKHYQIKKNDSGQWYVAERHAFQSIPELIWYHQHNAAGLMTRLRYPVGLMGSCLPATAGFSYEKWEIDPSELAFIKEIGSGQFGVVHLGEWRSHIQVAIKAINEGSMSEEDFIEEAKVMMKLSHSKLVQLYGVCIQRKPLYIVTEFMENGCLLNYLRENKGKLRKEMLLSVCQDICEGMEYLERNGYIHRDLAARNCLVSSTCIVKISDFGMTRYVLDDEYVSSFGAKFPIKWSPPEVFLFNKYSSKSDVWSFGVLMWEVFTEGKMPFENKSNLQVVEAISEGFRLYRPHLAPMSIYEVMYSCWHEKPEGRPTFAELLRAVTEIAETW", "assay": "Txk enzymatic assay", "type": "biochemical"}, "CSK": {"molecular_target": "CSK (Homo sapiens, UniProt P41240)", "assay": "CSK enzymatic assay"}, "FGR": {"molecular_target": "FGR (Homo sapiens, UniProt P09769)", "assay": "FGR enzymatic assay", "type": "biochemical", "from_the_text": "as §1"}}, "note": "Several values for one entry are separate records, joined by “and”; a condition that tells them apart may be missing. Equal values may be shown once.", "data": [{"compound": "Cc1c(-c2c(F)cc(C(N)=O)c3[nH]c4c(c23)CC[C@H](C(C)(C)O)C4)cccc1-n1c(=O)c2cccc(F)c2n(C)c1=O", "note": "[BMS-986142, 6-fluoro-5-(R)-(3-(S)-(8-fluoro-1-methyl-2,4-dioxo-1,2-dihydroquinazolin-3(4H)-yl)-2-methylphenyl)-2-(S)-(2-hydroxypropan-2-yl)-2,3,4,9-tetrahydro-1H-carbazole-8-carboxamide]", "values": [{"measurement": "Fold selectivity for BTK, over BLK", "setting": "BLK", "value": 46, "unit": "×"}, {"measurement": "Fold selectivity for BTK, over Tec", "setting": "Tec", "value": "< 30 × and 20×"}, {"measurement": "Fold selectivity for BTK, over IGF1R", "setting": "IGF1R", "value": 494, "unit": "×"}, {"measurement": "Fold selectivity for BTK, over BMX", "setting": "BMX", "value": 64, "unit": "×"}, {"measurement": "Fold selectivity for BTK, over Lck", "setting": "Lck", "value": 142, "unit": "×"}, {"measurement": "Fold selectivity for BTK, over ITK", "setting": "ITK", "value": 30, "unit": "×"}, {"measurement": "Fold selectivity for BTK, over Txk", "setting": "Txk", "value": 56, "unit": "×"}, {"measurement": "Fold selectivity for BTK, over CSK", "setting": "CSK", "value": 296, "unit": "×"}, {"measurement": "Fold selectivity for BTK, over FGR", "setting": "FGR", "value": 162, "unit": "×"}]}]}
